The source of these data is patent publication US20080293644A1, “GUAVA EXTRACT” (priority 2007, published 2008).

Protein sequences, listed by entry. Tags and fused reporters are not part of them. Residues count along the entry.
UniProt P27487, 39-766 limits assumed: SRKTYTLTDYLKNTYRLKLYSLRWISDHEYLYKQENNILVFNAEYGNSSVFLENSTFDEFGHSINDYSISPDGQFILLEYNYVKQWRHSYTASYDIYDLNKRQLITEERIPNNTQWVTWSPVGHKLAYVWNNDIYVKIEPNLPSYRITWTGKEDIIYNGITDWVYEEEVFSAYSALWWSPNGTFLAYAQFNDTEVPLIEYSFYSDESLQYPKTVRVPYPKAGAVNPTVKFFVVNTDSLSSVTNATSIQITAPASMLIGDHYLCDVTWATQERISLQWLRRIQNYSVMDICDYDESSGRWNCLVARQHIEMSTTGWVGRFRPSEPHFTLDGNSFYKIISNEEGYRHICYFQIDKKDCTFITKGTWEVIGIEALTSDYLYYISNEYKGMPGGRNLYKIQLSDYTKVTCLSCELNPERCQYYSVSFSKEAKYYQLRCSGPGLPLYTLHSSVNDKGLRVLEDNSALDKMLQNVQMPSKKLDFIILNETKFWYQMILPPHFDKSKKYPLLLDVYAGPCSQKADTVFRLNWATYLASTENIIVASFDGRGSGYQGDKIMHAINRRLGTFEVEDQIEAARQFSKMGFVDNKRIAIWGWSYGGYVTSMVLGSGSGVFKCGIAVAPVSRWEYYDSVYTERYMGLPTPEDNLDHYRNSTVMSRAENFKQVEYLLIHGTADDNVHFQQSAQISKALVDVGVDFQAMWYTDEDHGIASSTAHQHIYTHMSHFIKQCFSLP

The target in this assay is DP-IV (Homo sapiens, UniProt P27487). Put plainly: DP-IV activity colorimetric assay (Gly-Pro-4-NA hydrolysis, 405 nm) in human plasma. The settings on record: Concentration for 50% inhibition of DPIV, isolated flavonol-glycosides tested at 100-500 μg/ml; estimated.

The structures appear in SMILES notation.

On to `O=c1c(O[C@@H]2O[C@H](CO)[C@@H](O)[C@H](O)[C@H]2O)c(-c2ccc(O)c(O)c2)oc2cc(O)cc(O)c12` [compound 4], for which the IC50 was 900 µM.

For orientation: IC50 means the midpoint of a concentration-inhibition curve.
